According to US20140127136A1, “LIPOSOMES USEFUL FOR DRUG DELIVERY TO THE BRAIN” (Merrimack Pharmaceuticals, Inc., priority 2004, published 2014):

Legend:
[1] = system: SKBr-3 breast cancer cells; test: cells; settings: Homo sapiens, SK-BR-3
[2] = system: HER2-overexpressing human breast carcinoma cells SKBr-3; test: MTT cytotoxicity of free, liposomal and immunoliposomal vincristine; settings: SK-BR-3
[3] = system: HER2-overexpressing human breast carcinoma cells SKBr-3; settings: drug incubated with the cells for 6 h

**Q.** Which IC50 [1] does the source give for `CC[C@@]1(O)C(=O)OCc2c1cc1n(c2=O)Cc2cc3c(CN(C)C)c(O)ccc3nc2-1` [free Topotecan, Topotecan Hydrochloride] here?
**A.** ≥ 2.3 µg/mL

**Q.** How did the IC50 [2] turn out when `CC[C@]1(O)C[C@H]2CN(CCc3c([nH]c4ccccc34)[C@@](C(=O)OC)(c3cc4c(cc3OC)N(C=O)[C@H]3[C@@](O)(C(=O)OC)[C@H](OC(C)=O)[C@]5(CC)C=CCN6CC[C@]43[C@@H]65)C2)C1` [free VCR, vincristine sulfate] was run?
**A.** 0.075 µg/mL

**Q.** With `CCC1=C[C@@H]2CN(C1)Cc1c([nH]c3ccccc13)[C@@](C(=O)OC)(c1cc3c(cc1OC)N(C)[C@H]1[C@@](O)(C(=O)OC)[C@H](OC(C)=O)[C@]4(CC)C=CCN5CC[C@]31[C@@H]54)C2.O=C(O)C(O)C(O)C(=O)O.O=C(O)C(O)C(O)C(=O)O` [free VRB, vinorelbine bitartrate] as the molecule, how does the IC50 [3] read?
**A.** 0.28 µg/mL

Structures can show the parent of a compound that is named as a salt. Where two headings read alike, the source gives them in different places.
